From ChEMBL document CHEMBL2417361, “Investigation of acyclic uridine amide and 5'-amido nucleoside analogues as potential inhibitors of the Plasmodium falciparum dUTPase” (Bioorg Med Chem, 2013)

Test: Selectivity index, ratio of Ki for human dUTPase to Ki for recombinant Plasmodium falciparum dUTPase

For `O=c1ccn(CCCCOC(c2ccccc2)c2ccccc2)c(=O)[nH]1`, which Ratio Ki is on record?
The Ratio Ki was 98.

With `O=c1ccn(CCCCNC(c2ccccc2)c2ccccc2)c(=O)[nH]1` as the compound, how does the Ratio Ki read?
Its Ratio Ki is 11.

Which Ratio Ki does the source give for `O=c1ccn([C@H]2C[C@H](O)[C@@H](CNC(c3ccccc3)c3ccccc3)O2)c(=O)[nH]1` here?
The Ratio Ki was > 500.

For `O=c1ccn(CCCNC(c2ccccc2)c2ccccc2)c(=O)[nH]1`, which Ratio Ki is on record?
Its Ratio Ki is 2.

Which Ratio Ki does the source give for `O=c1ccn([C@H]2C[C@H](O)[C@@H](CNC(c3ccccc3)(c3ccccc3)c3ccccc3)O2)c(=O)[nH]1` here?
Its Ratio Ki is 46.
